Patent US20070025968A1, “Methods for selecting and producing T cell peptide epitopes and vaccines incorporating said selected epitopes” (priority 1996, published 2007)

Assays:
HLA-A*0301 = HLA-A*0301 (Homo sapiens, UniProt P04439); test: HLA class I peptide-binding competition assay on intact human B cells (EKR), FL-labeled reference peptide; details: IC50 (μM) competition assay
HLA-A*0201 = HLA-A*0201 (Homo sapiens, UniProt P04439, D140Y/D185E/D98H/E176V/E277Q/G131W/G231S/I119V/I121R/I166T/I218V/L300P/L318F/N151K/N90K/P208A/P217A/Q86G/Q94H/R138H/R169H/T345S); test: cell-based; details: Affinity IC50 (μM), Table VI; known CTL epitopes

Row | SMILES | IC50 (HLA-A*0301; 4° C., 24 hr) [µM] | IC50 (HLA-A*0301; 26° C., 3 hr) [µM] | IC50 (HLA-A*0301; 26° C., 24 hr) [µM] | IC50 (HLA-A*0201) [µM]
1 | CSCC[C@H](NC(=O)[C@H](C)N)C(=O)N[C@@H](CO)C(=O)N[C@@H](C)C(=O)N[C@@H](C)C(=O)N[C@@H](CCCNC(=N)N)C(=O)N[C@@H](CO)C(=O)N[C@@H](CO)C(=O)N[C@@H](CCCNC(=N)N)C(=O)O | 4 | 6 | 7 | 
2 | CC[C@H](C)[C@H](NC(=O)[C@H](Cc1ccc(O)cc1)NC(=O)CNC(=O)[C@H](CCSC)NC(=O)[C@H](CC(C)C)NC(=O)[C@@H](N)CC(=O)O)C(=O)N1CCC[C@H]1C(=O)N[C@@H](CC(C)C)C(=O)N[C@H](C(=O)O)C(C)C [reference compound] |  |  |  | 5
